Assay results: PMC10987111, “Rational Identification of Novel Antibody‐Drug Conjugate with High Bystander Killing Effect against Heterogeneous Tumors” (Advanced Science, 2024)

How the values were obtained:
[1] = test system: NCI-N87 cell-driven xenograft; assay: HER2+ NCI-N87 gastric cancer xenograft model; format: in vivo, BALB/c nude mice; details: single intravenous dose 1 mg kg^-1
Experimental: A suspension of 5 × 10^6 SKBR‐3 cells in 100 µL of 1: 1 PBS/Matrigel solution was injected subcutaneously into the armpit of female BALB/c nude mice aged 5–6 weeks (Day 0). On day 7, the tumors reached an average volume of ≈120 mm^3, mice were randomized to each group, and each drug or PBS was given to the mice at a single dose of 10 mg kg^−1 through injection via the tail vein, with a volume of 10 mL kg^−1. The size of the tumor and body weight were monitored twice a week. A suspension of 5 × 10^6 NCI‐N87 cells in 100 µL of PBS solution was injected subcutaneously into the flank of female BALB/c nude mice aged 5–6 weeks (Day 0). On day 7, the tumors reached an average volume of ≈110 mm^3, mice were randomized to each group, and each ADC was given to the mice at a single dose of 3 or 1 mg kg^−1 through injection via the tail vein, with a volume of 10 mL kg^−1. The size of the tumor and body weight were monitored three times a week. A suspension of 5 × 10^6 JIMT‐1 cells in 100 µL of 1: 1 PBS/Matrigel solution was injected subcutaneously into the flank of female BALB/c nude mice aged 4–5 weeks (Day 0). […] The size of the tumor and body weight were monitored three times a week. […]

JIMT-1 xenograft = JIMT-1 xenograft tumor model; format: in vivo, BALB/c nude mice; details: for tumor inhibitory effect: single dose 5 mg kg^-1, two weeks after administration
Experimental: (§1) A suspension of 5 × 10^6 SKBR‐3 cells in 100 µL of 1: 1 PBS/Matrigel solution was injected subcutaneously into the armpit of female BALB/c nude mice aged 5–6 weeks (Day 0). On day 7, the tumors reached an average volume of ≈120 mm^3, mice were randomized to each group, and each drug or PBS was given to the mice at a single dose of 10 mg kg^−1 through injection via the tail vein, with a volume of 10 mL kg^−1. The size of the tumor and body weight were monitored twice a week. A suspension of 5 × 10^6 NCI‐N87 cells in 100 µL of PBS solution was injected subcutaneously into the flank of female BALB/c nude mice aged 5–6 weeks (Day 0). On day 7, the tumors reached an average volume of ≈110 mm^3, mice were randomized to each group, and each ADC was given to the mice at a single dose of 3 or 1 mg kg^−1 through injection via the tail vein, with a volume of 10 mL kg^−1. The size of the tumor and body weight were monitored three times a week. A suspension of 5 × 10^6 JIMT‐1 cells in 100 µL of 1: 1 PBS/Matrigel solution was injected subcutaneously into the flank of female BALB/c nude mice aged 4–5 weeks (Day 0). On day 11, the tumors reached an average volume of ≈100 mm^3, mice were randomized to each group, and each drug or PBS was given to the mice at a single dose of 5 mg kg^−1 through injection via the tail vein, with a volume of 10 mL kg^−1. The size of the tumor and body weight were monitored three times a week. The tumor volume was estimated on the mathematical formula, which is 1/2 × length × width^2. […] After the sacrifice of mice, the tumors were isolated and collected for IHC analysis performed by Haoke Biotechnology Co., Ltd.

[2] = test system: NCI-N87 cells and MDA-MB-231/teLuc cells (2: 5 ratio) xenograft; assay: Xenograft mouse model of HER2-heterogeneous cancer (co-inoculation) with teLuc imaging; format: in vivo, BALB/c nude mice; details: for luciferase-mediated bioluminescent signal: MDA-MB-231/teLuc cells, DTZ substrate; for regression of HER2-negative tumors: quantified average radiance
Experimental: A mix suspension of 2 × 10^6 NCI‐N87 cells and 5 × 10^6 MDA‐MB‐231/teLuc cells in 100 µL of 1: 1 PBS/Matrigel solution was injected subcutaneously into the flank of female BALB/c nude mice aged 5–6 weeks (Day 0). On day 7, the tumors reached an average volume of ≈180 mm^3, mice were randomized to each group, and each ADC was given to the mice at a single dose of 5 or 2 mg kg^−1 through injection via the tail vein, with a volume of 10 mL kg^−1. The size of the tumor and body weight were monitored three times a week. The tumor volume was estimated on the mathematical formula, which is 1/2 × length × width^2. […] After the sacrifice of mice, the tumors and organs were isolated and collected for IHC analysis and H&E staining performed by Haoke Biotechnology Co., Ltd.
Teal luciferase activity of each mouse in the HER2‐heterogeneous xenograft model was determined by an in vivo Imaging System (IVIS) Spectrum CT (PerkinElmer, USA) once a week (Day 7, 14, 21, 35) 10 min after intraperitoneal injection of pre‐dissolved DTZ (MeisenCTCC). The amount of luminescence was analyzed using analysis software (Living Image Software version 4.3.1; PerkinElmer) as average radiance (p per s per cm^2 per sr).

[3] = test system: SKBR-3 cell-driven xenograft; assay: HER2+ breast cancer (SKBR-3) xenograft model; format: in vivo, BALB/c nude mice; details: single 10 mg kg^-1 dose, tail vein
Experimental: as §1

[4] = test system: NCI-N87 and MDA-MB-231/GFP co-culture system; assay: In vitro co-culture model for bystander-killing evaluation; format: cell-based, human; details: viability of MDA-MB-231/GFP in co-culture, especially cell ratio 1:5
Experimental: HER2‐positive cells (NCI‐N87 or SKBR‐3) and HER2‐negative cells (MDA‐MB‐231/GFP) were seeded in a clear bottom white 96‐well plate at 1000 cells per well and 2500 or 5000 cells per well (different ratios). After overnight incubation, a single concentration or a serially diluted solution of each ADC was added. Cell viability was evaluated after 120 h using the cell counting kit‐8 assay. The mixed cell viability was determined by CCK‐8 assay. The HER2‐negative cell viability was determined by detecting the GFP fluorescence intensity (Ex: 488 nm, Em: 507 nm) with a BioTek Synergy microplate reader. In the supernatant proliferation inhibition experiment, gradient concentrations of ADC were incubated with NCI‐N87 (4000 cells per well) for 48 h. Then the supernatant was incubated with MDA‐MB‐231 (3000 cells per well) for 72 h, and the cells viability were measured by CCK‐8 assay.

Substance: T-DXd
- anti-tumor activity [1]: only partial inhibition of tumor growth
- tumor inhibitory effect (JIMT-1 xenograft): good tumor inhibitory effects
- luciferase-mediated bioluminescent signal [2]: notable decrease
- regression of HER2-negative tumors [2]: tumor regrowth after day 35
- tumor volume change ([2]; single intravenous dose of 2 or 5 mg kg^-1): less effective

Substance: T-VAEd9
- therapeutic effect (tumor) [3]: insignificant

Substance: T-VDXd
- bystander-killing effect compared with T-DXd [4]: superior effects

Substance: T-VEd9
- bystander-killing effect compared with T-DXd [4]: more pronounced
- therapeutic effect (tumor) [3]: curative
- anti-tumor activity [1]: significant potency
- tumor suppression (JIMT-1 xenograft; single dose 5 mg kg^-1, end of the experiment): significant tumor suppression
- tumor inhibitory effect (JIMT-1 xenograft): good tumor inhibitory effects
- TGI ([2]; HER2 heterogeneity model): 99.3%
- luciferase-mediated bioluminescent signal [2]: notable decrease
- regression of HER2-negative tumors [2]: More complete regression

Substance: trastuzumab
- therapeutic effect (tumor) [3]: insignificant
